# In patent US9598370B2, “Prolyl hydroxylase inhibitors and methods of use” (Akebia Therapeutics, Inc., priority 2006, dated 2017):
# Tested on: VEGF in HEK293 cells
# Experiment: VEGF ELISA assay
# Type: cell-based
# Details: Homo sapiens, HEK293, read-out: VEGF EC50
# Protocol: HEK293 cells are seeded in 96-well poly-lysine coated plates at 20,000 cells per well in DMEM (10% FBS, 1% NEAA, 0.1% glutamine). Following overnight incubation, the cells are washed with 100 uL of Opti-MEM (Gibco, Carlsbad, Calif.) to remove serum. Compound in DMSO is serially diluted (beginning with 100 μM) in Opti-MEM and added to the cells. The conditioned media is analyzed for VEGF with a Quantikine human VEGF immunoassay kit (R&D Systems, Minneapolis, Minn.). Optical density measurements at 450 nm are recorded using the Spectra Max 250 (Molecular Devices, Sunnyvale, Calif.). Data defined as % of DFO stimulation is used to calculate EC50 values with GraphPad Prism 4 software (San Diego, Calif.).
row,SMILES,pEC50
1,COC(=O)CNC(=O)c1ncc(-c2ccc(C#N)cc2)cc1O [{[5-(4-Cyano-phenyl)-3-hydroxy-pyridine-2-carbonyl]-amino}-acetic acid methyl ester],< 4.00
2,COC(=O)CNC(=O)c1ncc(-c2cccc(-c3nn[nH]n3)c2)cc1O [({3-Hydroxy-5-[3-(2H-tetrazol-5-yl)-phenyl]-pyridine-2-carbonyl}-amino)-acetic acid methyl ester],< 4.00
3,COC(=O)CNC(=O)c1ncc(-c2cccc(C#N)c2)cc1O [{[5-(3-Cyano-phenyl)-3-hydroxy-pyridine-2-carbonyl]-amino}-acetic acid methyl ester],< 4.00

# pEC50: −log10 of the molar value.
